For this test, the target named is T1, recombinant human pancreatic GLK (Homo sapiens, UniProt P35557).
T1 sequence (P35557 1-465): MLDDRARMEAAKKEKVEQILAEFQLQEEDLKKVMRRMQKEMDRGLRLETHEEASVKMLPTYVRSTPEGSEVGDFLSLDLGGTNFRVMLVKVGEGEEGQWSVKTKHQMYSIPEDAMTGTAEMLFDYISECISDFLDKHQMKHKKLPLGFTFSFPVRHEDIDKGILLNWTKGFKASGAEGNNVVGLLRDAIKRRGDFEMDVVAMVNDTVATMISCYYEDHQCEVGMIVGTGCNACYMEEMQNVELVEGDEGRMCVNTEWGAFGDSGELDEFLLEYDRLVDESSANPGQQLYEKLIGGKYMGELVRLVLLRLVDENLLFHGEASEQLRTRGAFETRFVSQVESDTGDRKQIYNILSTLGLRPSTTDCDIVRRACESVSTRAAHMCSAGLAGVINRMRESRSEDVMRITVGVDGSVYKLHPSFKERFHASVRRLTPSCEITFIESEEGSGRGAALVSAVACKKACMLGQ
Put plainly: biochemical.

A word on the EC50: it is the concentration needed to bring the measured effect to its halfway point. Take `CC[C@@H](COC)Oc1cc(Oc2ccc(C(=O)N3CCC3)cc2F)cc(C(=O)Nc2ccn(C)n2)c1` [Example 2, 3-[4-(azetidin-1-ylcarbonyl)-2-fluorophenoxy]-5-{[(1S)-1-(methoxymethyl)propyl]oxy}-N-(1-methyl-1H-pyrazol-3-yl)benzamide]: the half-maximal effective concentration (EC50) was found to be 40 nM.
